From PMC6821926, “Diaminoquinazoline MMV675968 from Pathogen Box inhibits Acinetobacter baumannii growth through targeting of dihydrofolate reductase” (Scientific Reports, 2019) come the findings set out here.

By UniProt entry, the sequences of proteins in these tests, tags left out.
UniProt A0A098SJI9, entry or part of it: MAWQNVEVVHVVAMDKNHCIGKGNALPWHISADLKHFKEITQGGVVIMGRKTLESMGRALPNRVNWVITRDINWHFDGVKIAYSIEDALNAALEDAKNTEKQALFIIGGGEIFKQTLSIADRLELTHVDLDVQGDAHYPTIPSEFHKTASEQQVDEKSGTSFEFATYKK

The target in this assay is T1, A. baumannii dihydrofolate reductase (AbDHFR) (Acinetobacter baumannii, UniProt A0A098SJI9).
T1 construct: gene folA; AbDHFR expressed from pET15b in E. coli BL21(DE3)
The assay can be described thus: DHFR activity assay (A340) in lysate of E. coli BL21(DE3) overexpressing AbDHFR. It is filed as biochemical.

pIC50: −log10 of the molar value.

As to `CN(Cc1cnc2nc(N)nc(N)c2n1)c1ccc(C(=O)N[C@@H](CCC(=O)O)C(=O)O)cc1` [MTX, methotrexate], the pIC50 is 8.32.
